From PubChem BioAssay AID524 (The Scripps Research Institute Molecular Screening Center, 2006)
This is a selection; strong and weak results do not stand in their true shares. Calls of active or inactive are those of the source.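 Rule for the calls: active = inhibition above the screen-wide mean inhibition plus 3 SD (cut at about 21% in these data); inactive = the rest.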

Biological target: cAMP-dependent protein kinase catalytic subunit alpha (Homo sapiens) (UniProt P17612)
Test: PKA catalytic subunit kinase inhibition – biochemical, ATP-depletion luminescence, Kemptide substrate, primary screen (AID 524)
Settings: PKA Kemptide phosphorylation, Kinase-Glo ATP luminescence; at 6 µM; stronger effect = higher value

SMILES | inhibition
Cc1ccccc1NP(C)(=O)Nc1ccccc1C | inactive: 12.1%
CP(=O)(Nc1ccc2c(c1)OCCO2)Oc1ccccc1 (stereo not drawn) | inactive: 6.2%
CCOP(C)(=S)SCC(=O)NC(C)(CC)C(=O)O (stereo not drawn) | inactive: 0.3%
CN(C)CCOC(=O)C(O)(c1ccccc1)C1CCCCC1 (stereo not drawn) | inactive: -9.6%
CP(=O)(Nc1ccccc1F)Oc1ccccc1 (stereo not drawn) | inactive: 14.6%
CP(=O)(Nc1ccccn1)Oc1ccccc1 (stereo not drawn) | inactive: 4.3%
Cc1nc2ccc3ccccc3c2o1.O=[N+]([O-])c1cc([N+](=O)[O-])c(O)c([N+](=O)[O-])c1 | inactive: -1%
COc1ccccc1OP(C)(=O)Nc1ccc(C)c(C)c1 (stereo not drawn) | inactive: 9.8%
CP(=O)(Oc1ccccc1)N1CCOC1=O (stereo not drawn) | inactive: 6.3%
COc1ccccc1OP(C)(=O)Nc1c(C)n(C)n(-c2ccccc2)c1=O (stereo not drawn) | inactive: 9.9%
CCN(CC)CC(O)COC(=O)C(O)(c1ccccc1)C1CCCCC1 (stereo not drawn) | inactive: 6.4%
CCOP(C)(=S)SCC(=O)NC(C)C(=O)O (stereo not drawn) | inactive: 5.5%
CP(=O)(NC(=O)Nc1ccccc1)Oc1ccccc1 (stereo not drawn) | inactive: -2.9%
CP(=S)(Nn1cnnc1)Oc1ccccc1 (stereo not drawn) | inactive: 4.8%
COc1ccccc1OP(C)(=O)Nc1ccc(C)cc1 (stereo not drawn) | inactive: 2%
Cc1ccc(NP(C)(=O)Oc2ccccc2)c(C)c1 (stereo not drawn) | inactive: 8.1%
Cc1ccc(C)c(NP(C)(=O)Oc2ccccc2)c1 (stereo not drawn) | inactive: 6.4%
Cc1nc2ccc3ccccc3c2s1.O=[N+]([O-])c1cc([N+](=O)[O-])c(O)c([N+](=O)[O-])c1 | inactive: 5.3%
